Test results from patent US7759392B2, “Pharmaceutical compounds” (Nicox S.A., priority 1999, dated 2010).

Test system: gastrointestinal mucosa
Conditions: rat, in vivo

NCCCC(O)(P(=O)(O)O)P(=O)(O)O [Alendronate, sodic alendronate]
Gastro-enteropathy (% incidence) without NEM: 0%
gastrointestinal damages / gastric lesions in rats treated with NEM + drug (in words): showed gastric lesions
